Measurements from US12478617B2, “Lipidated peptide inhibitors of interleukin-23 receptor” (JANSSEN BIOTECH, INC., priority 2021, dated 2025).

molecular target: T1, IL-23R (Homo sapiens, UniProt Q5VWK5); test: IL23R Reporter Assay; type: cell-based; conditions: HEK293 cells containing IL-23R, IL-12Rβ1 and STAT-inducible firefly luciferase reporter; 10 ng/mL IL-23 (EC90); 5 h at 37° C.
T1 construct: HEK293 cells containing IL-23R, IL-12RP31 and a firefly luciferase reporter gene driven by a STAT-inducible promoter (Promega); host or cells: HEK293
T1 sequence (Q5VWK5 24-629): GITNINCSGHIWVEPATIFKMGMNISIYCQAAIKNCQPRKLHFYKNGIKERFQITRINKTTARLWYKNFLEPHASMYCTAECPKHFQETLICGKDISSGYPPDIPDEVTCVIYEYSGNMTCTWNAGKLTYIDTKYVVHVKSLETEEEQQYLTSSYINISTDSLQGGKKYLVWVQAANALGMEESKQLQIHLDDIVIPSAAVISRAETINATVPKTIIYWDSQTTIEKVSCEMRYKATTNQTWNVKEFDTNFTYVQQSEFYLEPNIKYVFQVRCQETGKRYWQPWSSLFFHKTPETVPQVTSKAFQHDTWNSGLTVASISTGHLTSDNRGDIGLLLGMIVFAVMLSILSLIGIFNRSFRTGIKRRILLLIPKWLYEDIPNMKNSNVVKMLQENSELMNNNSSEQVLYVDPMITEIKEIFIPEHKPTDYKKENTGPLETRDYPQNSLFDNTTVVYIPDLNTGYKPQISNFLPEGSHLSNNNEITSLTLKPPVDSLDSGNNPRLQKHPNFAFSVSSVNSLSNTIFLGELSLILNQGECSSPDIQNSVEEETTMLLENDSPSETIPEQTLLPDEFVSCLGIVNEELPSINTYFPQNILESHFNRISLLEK

Substance | IC50
MeCO-K(gEC18)-Pen*-K(gEC18)-T-7MeW-K(Ac)-Pen*-AEF-2Nal-THP-K(Ac)-N-3Pya-Sar-CONH2 [Example 80] | > 16600 pM
MeCO-K(gEC18)-Pen*-N-T-7MeW-K(Ac)-Pen*-AEF-2Nal-THP-K(gEC18)-N-3Pya-Sar-CONH2 [Example 126] | 160 pM
MeCO-K(gEC18OH)-Pen*-N-T-7MeW-K(Ac)-Pen*-AEF-2Nal-THP-K(Ac)-N-3Pya-N(4AmBenzyl)Gly-CONH2 [Example 87] | 79 pM
MeCO-K(gEC18OH)-Pen*-N-T-7MeW-K(Ac)-Pen*-AEF-2Nal-THP-K(Ac)-N-3Pya-Sar-CONH2 [Example 48] | 45 pM
MeCO-K[PEG2PEG2gEDAP(pXOH)2]-Pen*-N-T-7MeW-K(Ac)-Pen*-AEF-2Nal-THP-K(Ac)-N-3Pya-Sar-CONH2 [Example 133] | 31 pM
MeCO-Pen*-N-T-7MeW-K(Ac)-Pen*-AEF-2Nal-THP-K(PEG6gEC16OH)-N-3Pya-Sar-CONH2 [Example 32] | 21 pM
MeCO-Pen*-N-T-7MeW-K(Ac)-Pen*-AEF-2Nal-THP-K(PEG24C18OH)-N-3Pya-Sar-CONH2 [Example 47] | 41 pM
MeCO-Pen*-N-T-7MeW-K(Ac)-Pen*-AEF-2Nal-THP-K(PEG24gEC16OH)-N-3Pya-Sar-CONH2 [Example 44] | 20 pM
MeCO-Pen*-N-T-7MeW-K(Ac)-Pen*-AEF-2Nal-THP-K(PEG24gEC18OH)-N-3Pya-Sar-CONH2 [Example 45] | 39 pM
MeCO-r-Pen*-N-T-7MeW-K(Ac)-Pen*-AEF-2Nal-THP-K(PEG2PEG2gETrxC18OH)-N-3Pya-Sar-CONH2 [Example 58] | 94 pM
MeCO-r-Pen*-N-T-7MeW-K(Ac)-Pen*-AEF-2Nal-THP-K(PEG2PEG2gETrxC20OH)-N-3Pya-Sar-CONH2 [Example 59] | 180 pM

molecular target: IL-23R-expressing DB cells (Homo sapiens, UniProt Q5VWK5); test: DB Cells IL23R pSTAT3 Cell Assay; type: cell-based; conditions: pSTAT3 (HTRF) in IL-23R-expressing DB cells, 0.5 nM IL-23, 30 minutes; Table 6 'IL-23 Cell Data'
Description: IL-23 is believed to play a central role in supporting and maintaining Th17 differentiation in vivo. This process is thought to be mediated primarily through the Signal Transducer and Activator of Transcription 3 (STAT3), with phosphorylation of STAT3 (to yield pSTAT3) leading to upregulation of RORC and pro-inflammatory IL-17. This cell assay examines the levels of pSTAT3 in IL-23R-expressing DB cells when stimulated with IL-23 in the presence of test compounds. Serial dilutions of test peptides and IL-23 (Humanzyme #HZ-1261) at a final concentration of 0.5 nM, were added to each well in a 96 well tissue culture plate (Corning #CLS3894). DB cells (ATCC #CRL-2289), cultured in RPMI-1640 medium (Thermo Scientific #11875093) supplemented with 10% FBS, were added at 5 X 10E5 cells/well and incubated for 30 minutes at 37° C. in a 5% CO2 humidified incubator. Changes in phospho-STAT3 levels in the cell lysates were detected using the Cisbio HTRF pSTAT3 (Tyr705) Cellular Assay Kit (Cisbio #62AT3PEH), according to manufacturer's Two Plate Assay protocol. Where not shown or it is marked as “0”, data was not yet determined.

Substance | IC50
Ac-[Lys(PEG4)]-[Pen]-L-T-[Trp(7-Me)]-[Lys(Ac)]-[Pen]-F-[2Nal]-[aMeLeu]-L-N-[3Pal]-[Sarc]-NH2 [Example 216] | 215 pM
Ac-[Lys(PEG4)]-[Pen]-N-T-[Trp(7-Me)]-[Lys(Ac)]-[Pen]-F-[2Nal]-[aMeLeu]-L-N-[3Pal]-[Sarc]-NH2 [Example 215] | 39.3 pM
Ac-[Lys(PEG12_OMe)]-[Pen]-L-T-[Trp(7-Me)]-[Lys(Ac)]-[Pen]-F-[2Nal]-[aMeLeu]-L-N-[3Pal]-[Sarc]-NH2 [Example 206] | 129 pM
Ac-[Lys(PEG12_OMe)]-[Pen]-N-T-[Trp(7-Me)]-[Lys(Ac)]-[Pen]-F-[2Nal]-[aMeLeu]-L-N-[3Pal]-[Sarc]-NH2 [Example 205] | 38 pM
Ac-[Pen]-A-T-[Trp(7-Me)]-[Lys(Ac)]-[Pen]-[Phe(4-OMe)]-[2Nal]-[aMeLys(PEG12_IsoGlu_C18_Diacid)]-A-A-[3Pal]-[Sarc]-NH2 [Example 224] | 807 pM
Ac-[Pen]-A-T-[Trp(7-Me)]-[Lys(Ac)]-[Pen]-[Phe(4-OMe)]-[2Nal]-[aMeLys(PEG12_IsoGlu_Palm)]-A-A-[3Pal]-[Sarc]-NH2 [Example 223] | 801 pM
Ac-[Pen]-L-T-[Trp(7-Me)]-[Lys(Ac)]-[Pen]-[Phe(4-OMe)]-[2Nal]-[THP]-[Lys(Ac)]-[Lys(PEG12_C18_Diacid)]-[3Pal]-[Sarc]-NH2 [Example 239] | 5160 pM
Ac-[Pen]-L-T-[Trp(7-Me)]-[Lys(Ac)]-[Pen]-[Phe(4-OMe)]-[2Nal]-[THP]-[Lys(PEG12_C18_Diacid)]-L-[3Pal]-[Sarc]-NH2 [Example 242] | 4150 pM
Ac-[Pen]-L-T-[Trp(7-Me)]-[Lys(Ac)]-[Pen]-[Phe(4-OMe)]-[2Nal]-[THP]-[Lys(PEG12_IsoGlu_C18_Diacid)]-L-[3Pal]-[Sarc]-NH2 [Example 244] | 8980 pM
Ac-[Pen]-L-T-[Trp(7-Me)]-[Lys(IsoGlu_C18_Diacid)]-[Pen]-[Phe(4-OMe)]-[2Nal]-[THP]-L-L-[3Pal]-[Sarc]-NH2 [Example 263] | > 10000 pM
Ac-[Pen]-L-T-[Trp(7-Me)]-[Lys(IsoGlu_Palm)]-[Pen]-[Phe(4-OMe)]-[2Nal]-[THP]-[Lys(Ac)]-L-[3Pal]-[Sarc]-NH2 [Example 272] | > 10000 pM
